# Measurements as given in patent US20240327493A1 (GEORGE MASON UNIVERSITY, priority 2023, published 2024).
# Tested on: human PBMCs co-cultured with OVCAR8 cells
# Experiment: Co-culture of OVCAR8 cells and stimulated human PBMCs, 1:10 OVCAR8:PBMC ratio
# Assay type: cell-based
# Details: 24 hours, vs untreated co-culture control; for TNFα levels: ELISA, FIG. 10C; for IL-2 levels: FIG. 10B
# Description: For this model, PBMCs and cancer cells were both stimulated prior to co-culture to promote expression of PD-1 and PD-L1, respectively.
# Stimulation of the PBMCs causes them to release inflammatory cytokines including IL-2 and TNFα,
# Therefore, co-culture experiments were repeated using a 1:10 ratio of OVCAR8: PBMCs to increase the dynamic range of the assay and improve statistical confidence. […] (FIG. 10D)
# OVCAR8 cells, generously provided by the Gottesman Lab (National Institutes of Health, Bethesda, MD, USA), and MDA-MB-231 cells (American Type Culture Collection, Rockville, MD, USA) were cultured in Gibco RPMI 1640 media (ThermoFisher Scientific, Cat. No. 11-875-093) supplemented with 10% Gibco fetal bovine serum (ThermoFisher Scientific, Cat. No. 10437028), and 1% penicillin/streptomycin (10,000 U/mL pen, 10 mg/mL strcp) from MilliporeSigma (Burlington, MA, USA, Cat. No. P4333). Cells were cultured at 37° C. and 5% CO2. Passage number was kept below 3 for co-culture assay. Human peripheral blood mononuclear cells were purchased frozen from […] Technologies (Vancouver, Canada, Cat. No. 70025.2) from two female donors. PBMCs were thawed according to manufacturer's instructions one day before co-culture and cultured in the same media and conditions as cancer cell lines.
# For co-culture experiments with excess PBMCs ratios, OVCAR8 cells were seeded at a density of 2×10^4 cells/mL on a 24-well plate and allowed to adhere overnight. The next day, cells were stimulated with 100 ng/mL IFNγ and two vials of human PBMCs were thawed. On Day 3, concentrations of PBMCs and OVCAR8 cells (harvested from a control well) were measured using the QuadCount Automated Cell Counter. The concentration of PBMCs required for a 1:10 OVCAR8:PBMC ratio was calculated from the OVCAR8 concentration. PBMCs were plated on a separate 24-well plate (1 mL/well) and stimulated with 5 μg/mL of anti-CD3 and 5 μg/mL of anti-CD28 for 30 minutes before drug treatment. […] After 30 minutes, media was removed from OVCAR8 wells without treatment, and replaced with 1 mL of treated PBMCs. After 24 hours, the supernatants were collected from each well, and centrifuged at 10,000×g for 5 minutes to remove any remaining cells.
# For experiments analyzed via IL-2 PCR-ELISA, the levels of IL-2 in the collected supernatants were measured using the IL-2 Human ProQuantum Immunoassay Kit (ThermoFisher Scientific, Cat. No. A35603). Briefly, samples from co-culture experiments with excess OVCAR8 ratios were diluted 1:10 in assay buffer, and samples from co-culture experiments with excess PBMC ratios were diluted 1:5 in assay buffer. […]
# Remaining samples from experiments with excess PBMC ratios were analyzed using TNFα (Cat. No. 430204) ELISA MAX Deluxe Sets (BioLegend, San Diego, CA, USA) according to manufacturer's instructions. […]
substance,measurement,setting,value
"rPD-L1: recombinant, full-length PD-L1 (R&D systems), control in the co-culture model [reference compound]",TNFα levels,,significantly decreased
same,TNFα levels,listed as recombinant PD-L1,significantly decrease cytokine levels
same,IL-2 levels,,significantly decreased
same,IL-2 levels,listed as recombinant PD-L1,significantly decrease cytokine levels
